Measured values from PMC8399180, “Bioactive Polyketide and Diketopiperazine Derivatives from the Mangrove-Sediment-Derived Fungus Aspergillus sp. SCSIO41407” (Molecules, 2021).

The chains behind the UniProt entries cited, without tags or fusion partners. Residues count along the entry.
UniProt P22303, 32-614, species assumed: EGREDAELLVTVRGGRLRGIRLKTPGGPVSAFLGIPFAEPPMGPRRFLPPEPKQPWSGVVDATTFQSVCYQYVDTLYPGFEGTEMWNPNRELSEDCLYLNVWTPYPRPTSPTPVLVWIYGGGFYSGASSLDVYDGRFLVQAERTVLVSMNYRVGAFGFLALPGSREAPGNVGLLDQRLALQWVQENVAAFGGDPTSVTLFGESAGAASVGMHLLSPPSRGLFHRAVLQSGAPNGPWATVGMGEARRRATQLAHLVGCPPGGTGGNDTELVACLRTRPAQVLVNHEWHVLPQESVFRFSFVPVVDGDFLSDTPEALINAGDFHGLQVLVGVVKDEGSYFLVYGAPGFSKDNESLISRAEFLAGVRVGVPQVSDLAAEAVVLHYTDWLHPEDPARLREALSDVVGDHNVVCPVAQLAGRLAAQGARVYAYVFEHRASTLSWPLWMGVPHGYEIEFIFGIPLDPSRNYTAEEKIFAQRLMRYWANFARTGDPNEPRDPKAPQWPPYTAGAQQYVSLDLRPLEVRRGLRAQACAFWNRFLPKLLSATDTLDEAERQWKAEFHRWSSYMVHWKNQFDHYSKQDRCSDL

Biological target: acetylcholinesterase (AChE) (Homo sapiens, UniProt P22303)
Test: AChE inhibitory activity (modified Ellman method)
Format: biochemical
Description: AChE inhibitory activity was evaluated in vitro according to the modified Ellman method. Briefly, 0.1 U/mL AChE solution was prepared by dissolving in phosphate buffer (pH 8.0). The test sample and enzyme buffer were mixed in 96-well plates and incubated for 20 min at 30 °C. Then, 5,5′-dithiobis (2-nitrobenzoic acid) and acetylthiocholine iodide were added, and the enzyme reaction was allowed to proceed for 30 min at 30 °C. AChE activity was determined by measuring the degradation of acetylthiocholine iodide to thiocholine and acetic acid at 405 nm using a microplate reader.

## CCCCCCCCCCC[C@@H](C[C@@H]1OC(=O)[C@H]1CCCCCC)OC(=O)[C@H](CC(C)C)NC=O [orlistat, reference compound]
  IC50: 330 nM
